By UniProt entry, the sequences of proteins in these tests, tags left out.
UniProt P35372, whole entry: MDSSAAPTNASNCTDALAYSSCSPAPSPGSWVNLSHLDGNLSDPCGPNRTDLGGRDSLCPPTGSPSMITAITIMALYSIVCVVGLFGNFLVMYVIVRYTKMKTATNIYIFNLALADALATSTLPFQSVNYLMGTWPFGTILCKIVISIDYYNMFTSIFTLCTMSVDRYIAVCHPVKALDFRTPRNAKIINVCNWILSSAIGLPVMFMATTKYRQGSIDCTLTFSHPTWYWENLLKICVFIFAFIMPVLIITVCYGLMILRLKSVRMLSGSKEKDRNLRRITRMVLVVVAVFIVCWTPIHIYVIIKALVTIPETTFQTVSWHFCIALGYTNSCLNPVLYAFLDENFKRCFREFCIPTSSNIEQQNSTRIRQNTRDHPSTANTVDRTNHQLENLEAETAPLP

In US7563899B2, “(S)-N-methylnaltrexone” (Progenics Pharmaceuticals, Inc., priority 2005, dated 2009):

Target: T1, human μ (mu, MOP) receptor (Homo sapiens, UniProt P35372)
T1 construct: expressed in transfected cells; host or cells: CHO cells
Test: cAMP assay in CHO cells expressing human mu receptor, antagonist assay
Assay type: cell-based
Conditions: then forskolin
Method: Thus full antagonist effect was equivalent to forskolin without any addition of μ-opioid agonist.
Cells were grown to confluence in 96-well plates. Cells were washed and equilibrated in physiological buffer before analysis. 20 ul of drug, 100 uM IBMX and 10 uM forskolin were added and incubated for 25 minutes at room temperature and then the reaction was stopped with the addition of 0.1 N HCl. Extracted cAMP level was determined via competitive EIA assay utilizing alkaline phosphatase. Additional experimental conditions were as described in Toll L., J Pharmacol Exp Ther. (1995) 273(2): 721-7.

CTOP [reference compound]
cAMP antagonist assay value (Table IX.2) (log{M} conc −5.0, then 30 μM DAMGO): 91 | cAMP antagonist assay value (Table IX.2) (log{M} conc −6.0, then 30 μM DAMGO): 109 | cAMP antagonist assay value (Table IX.2) (log{M} conc −7.0, then 30 μM DAMGO): 48 | cAMP antagonist assay value (Table IX.2) (log{M} conc −8.0, then 30 μM DAMGO): 1 | cAMP antagonist assay value (Table IX.2) (log{M} conc −11.0, then 30 μM DAMGO): −1
